{"source": "patent US6281248A", "about": "“Composition for treating asthma” (priority 2000, dated 2001)", "test_system": "norepinephrine neuronal reuptake", "assay": "In vitro neuronal norepinephrine reuptake", "settings": "animals", "data": [{"compound": "CN[C@H]1CC[C@@H](c2ccc(Cl)c(Cl)c2)c2ccccc21.Cl", "note": "[sertraline, (1S-cis)-4-(3,4-dichlorophenyl)-1,2,3,4-tetrahydro-N-methyl-1-naphthalenamine hydrochloride]", "values": [{"measurement": "effects on norepinephrine neuronal reuptake", "result": "only very weak effects"}]}]}
